Literature values, collected in patent publication US20130344170A1, “POLYMORPHISMS PREDICTIVE OF ANTHRACYCLINE- INDUCED CARDIOTOXICITY” (THE UNIVERSITY OF BRITISH COLUMBIA, priority 2006, published 2013).

System: human epidermal growth factor receptor 2 (HER2)-positive metastatic breast cancer

Substance: HERCEPTIN: Genentech's HERCEPTIN, effective in HER2-positive metastatic breast cancer subjects
- effectiveness in overall Phase III trial (overall Phase III trial population): not effective
- effectiveness in genetic subset of subjects (subset of subjects with HER2-positive metastatic breast cancer): effective
